From USRE32311E

Test: toxicity, LD50 in mice
Assay type: in vivo
Conditions: administered intravenously

Row | Structure (SMILES) | LD50 in Mice [mg/kg]
1 | CCCCCCCCCCC(=O)N[C@@H](Cc1ccccc1)C(=O)NCCC[C@@H]1NC(=O)CNC(=O)[C@@H](NC(=O)[C@H](CC(=O)O)NC(=O)[C@@H](CC(N)=O)NC(=O)[C@@H](N)Cc2c[nH]c3ccccc23)[C@@H](C)OC(=O)[C@H](CC(=O)c2ccccc2N)NC(=O)[C@H]([C@H](C)CC(=O)O)NC(=O)[C@@H](CO)NC(=O)CNC(=O)[C@H](CC(=O)O)NC(=O)[C@@H](C)NC(=O)[C@H](CC(=O)O)NC1=O [Compound 26] | 225
2 | CCCCCCCCCCCCC(=O)N[C@@H](Cc1ccccc1)C(=O)N[C@@H](Cc1c[nH]c2ccccc12)C(=O)N[C@H](CC(N)=O)C(=O)N[C@@H](CC(=O)O)C(=O)N[C@@H]1C(=O)NCC(=O)N[C@@H](CCCN)C(=O)N[C@@H](CC(=O)O)C(=O)N[C@H](C)C(=O)N[C@@H](CC(=O)O)C(=O)NCC(=O)N[C@H](CO)C(=O)N[C@@H]([C@H](C)CC(=O)O)C(=O)N[C@@H](CC(=O)c2ccccc2N)C(=O)O[C@@H]1C [Compound 21] | 225
